Source: patent US6566355B1 (Hoffmann-La Roche Inc., priority 1991, dated 2003)

Chains of the proteins cited; added tags and fusions are not shown. Residues count along the entry.
UniProt P05193, 21-381: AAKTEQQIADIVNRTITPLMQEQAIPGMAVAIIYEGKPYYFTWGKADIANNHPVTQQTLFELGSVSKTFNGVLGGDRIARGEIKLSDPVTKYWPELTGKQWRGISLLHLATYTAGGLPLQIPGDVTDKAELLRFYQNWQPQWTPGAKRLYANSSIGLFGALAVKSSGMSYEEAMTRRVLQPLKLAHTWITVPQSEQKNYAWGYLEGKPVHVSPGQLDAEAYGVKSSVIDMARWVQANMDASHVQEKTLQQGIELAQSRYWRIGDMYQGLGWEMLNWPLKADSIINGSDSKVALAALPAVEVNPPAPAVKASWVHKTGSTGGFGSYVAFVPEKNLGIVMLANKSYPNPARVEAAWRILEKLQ

Biological target: T1, β-lactamase (Citrobacter freundii, UniProt P05193)
T1 construct: Various β-lactamases can be isolated from penicillin- or cephalosporin-resistant bacterial strains such as; endogenous in cells; host or cells: Citrobacter freundii 1203 (enzyme purified from the crude cell extract, after ampicillin induction when necessary)
Type: biochemical
Conditions: isolated β-lactamase of Citrobacter freundii; substrate nitrocefin 0.1 mM; 15 minutes pre-incubation with inhibitor; 37° C., pH 7.0
Procedure: A. Isolation of the β-lactamases
Various β-lactamases can be isolated from penicillin- or cephalosporin-resistant bacterial strains such as Klebsiella pneumoniae NCTC 418, Proteus vulgaris 1028, Bacillus licheniformis 749/C, Escherichia coli SN01 and Citrobacter freundii 1203. For this purpose, the corresponding strains are cultivated in Tryptic Soy Broth (Difco) and harvested by centrifugation in the last logarithmic growth phase (when necessary 50-100 mg/l of ampicillin are added to the medium towards the end of the log-phase in order to induce the β-lactamase). The thus-obtained bacterial mass is treated with 20 mM Tris-HCl buffer (pH 7.0); the cells are broken open with a French press while cooling. The mixture is centrifuged (20,000 r/min.) for 20-30 minutes and a clear crude extract is obtained.
B. Determination of the β-lactamase activity
The determination of the activity of the isolated β-lactamases can be carried out according to the method of O'Callaghan, C. H. et al. [Antimicr. Ag. Chemother., 1, 283-288 (1972)] using the chromogenic cephalosporin nitrocefin (87/312 from Glaxo). […] The cleavage of the substrate, which is accompanied by a change in colour, is effected at 37° C. and is followed quantitatively at 482 nm using a spectral photometer. […]

Substance	IC50 [nM]
(1S,5R)-2-(Furan-2-ylcarbonyl-carbazoyl)-7-oxo-2,6-diazabicyclo[3.2.0]heptane-6-sulphonic acid sodium salt [17(q)]	576
(1S,5R)-(E)-3-Phenyl-acryloyl-2,6-diazabicyclo[3.2.0]heptane-6-sulphonic acid sodium salt [11(a)]	76
